Test results from patent publication US9018200B2, “Substituted piperidinyl compounds useful as GPR119 agonists” (Merck Sharp & Dohme Corp., priority 2011, dated 2015).

The chains behind the UniProt entries cited, without tags or fusion partners. Residues count along the entry.
UniProt Q8TDV5, 1-308 limits assumed: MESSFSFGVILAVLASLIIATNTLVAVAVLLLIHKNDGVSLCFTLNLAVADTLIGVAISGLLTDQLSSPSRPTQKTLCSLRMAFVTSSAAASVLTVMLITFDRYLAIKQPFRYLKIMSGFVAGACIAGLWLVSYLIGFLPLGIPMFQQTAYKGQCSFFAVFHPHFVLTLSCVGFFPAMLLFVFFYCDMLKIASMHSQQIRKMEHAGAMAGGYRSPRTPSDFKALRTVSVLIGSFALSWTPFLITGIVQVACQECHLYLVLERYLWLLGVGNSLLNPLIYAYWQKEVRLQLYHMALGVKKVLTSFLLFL

Target: human GPR119 (Homo sapiens, UniProt Q8TDV5)
Assay: Measurement of GPR119 signaling (cAMP assay) in HEK 293 cells stably transfected with human GPR119
Settings: read-out: Human GPR119 EC50; table of Examples 5-56
Description: Measurement of GPR119 Signaling (Cyclic AMP (cAMP) Assay)
Human embryonic kidney (HEK) 293 cell lines stably transfected with human GPR119 were maintained in Dulbecco's Modified Eagle Medium (DMEM) containing fetal bovine serum (FBS), penicillin-streptomycin, HEPES buffer (4-(2-hydroxyethyl)-1-piperazineethane sulfonic acid), and hygromycin. For the cAMP assay, the transfected cells were harvested using a non-enzymatic cell dissociation solution (GIBCO 2672), pelleted and resuspended in stimulation buffer (DMEM, 25 mM HEPES, 0.1% bovine serum albumin (BSA), pH 7.4 in the presence of 100 μM phosphodiesterase inhibitors). The adenylate cyclase assay was constructed following the LANCE™ cAMP Kit (Perkin Elmer, AD0264) instructions.
Briefly, cells with Alexa Fluor® 647-anti cAMP antibody were incubated with 10 point series diluted test article in stimulation buffer with a final concentration of 2.5% DMSO for 45 minutes. […] The assay was performed in duplicate in a 384 well plate for duplicate plates and fluorescence was measured at 665 nm. Basal activity was determined using a DMSO control and maximum response was defined as cAMP stimulation produced by an internal agonist control. Standard cAMP concentrations were assayed concurrently for conversion of fluorescence signal to cAMP level. The data was analyzed using 4-parameter curve fit in Microsoft Excel. […]

Compound	EC50
CS(=O)(=O)c1ccc(OCC[C@@H]2C[C@@H]2C2CCN(CC(F)(F)C(F)F)CC2)cc1	45.4 nM
CC(F)(F)CN1CCC([C@H]2C[C@H]2CCOc2ccc(C(=O)NC3CC3)c(F)c2)CC1	45.1 nM
